In patent publication US20010056085A1, “Methods of using vesicant drug formulations” (priority 1996, published 2001):
Where two headings read alike, the source gives them in different places.

Key:
[1] = Half-life of ADR destruction by UVA light in the presence of test compounds (decrease in absorbance at 480 nm); assay type: physicochemical
[2] = Effect of UVA irradiation on the absorbance spectrum of DOX (350-600 nm; KDOX at 480 nm); assay type: physicochemical
P388 cells = assay: In vitro cell culture assay: growth inhibitory effect of UVA-irradiated DOX solutions; assay type: cell-based, murine
Description: Cell culture was carried out as previously described (Ramu et al. [1984] Cancer Res., 44:144). Briefly, P388 murine leukemia cells (i.e., P388D1 available from the ATCC; […] An inoculum of cells was transferred to fresh medium once every 4 days to maintain exponential growth. […] Drug solutions (0.2 ml/well) in 24 well culture clusters without the lid were irradiated in a laminar flow hood with 3 Blacklight Blue 40 W lamps (Vilber Lourmat, Marne la Vallee, France).

[3] = UVA light, 100 μM test compound with 0.5 μM riboflavin
[4] = UVA light, 100 μM test compound alone

Row | Compound | Half-Life of ADR Destruction, 100 μM Test Compound and 0.5 μM Riboflavin [1, 3] [min] | Half-Life of ADR Destruction, 100 μM Test Compound [1, 4] [min] | further results
1 | 3-(N-Aminophenyl)-1-Propanol | 50.2 | – | –
2 | Cn1c(=O)c2[nH]cnc2n(C)c1=O [1,3-Dimethyl Xanthine (Theophylline), 1,3-Dimethyl Xanthine, reference compound] | 14.3 | 50.2 | –
3 | COc1ccccc1C=CC(=O)O [2-Methoxy Cinnamic Acid] | 30.1 | 43.0 | –
4 | Nc1ccc(C(=O)O)cc1N [3,4-Diamino Benzoic Acid] | 50.2 | – | –
5 | COc1cc(C=CC(=O)O)ccc1O [3-Methoxy-4-Hydroxy Cinnamic Acid] | 50.2 | 50.2 | –
6 | O=[N+]([O-])c1ccc2[nH]ccc2c1 [5-Nitro Indole] | 21.5 | – | –
7 | O=C1c2ccccc2Cc2ccccc21 [Anthrone] | 1.27 | 1.38 | –
8 | COc1cccc2c1C(=O)c1c(O)c3c(c(O)c1C2=O)C[C@@](O)(C(=O)CO)C[C@@H]3O[C@H]1C[C@H](N)[C@H](O)[C@H](C)O1.Cl [DOX, Doxorubicin HCl, reference compound] | – | – | KDOX ([2]; 20 μM DOX, only the inorganic salts of RPMI medium 1640, 50 mM HEPES, UVA): 3.3e-05 s⁻¹; KDOX ([2]; RPMI medium 1640 without riboflavin): 0.00012 s⁻¹; KDOX ([2]; inorganic salt mixture + riboflavin 0.5 μM): 0.0001 s⁻¹; KDOX ([2]; inorganic salts + amino acid and vitamin mixtures): 0.000483 s⁻¹; KDOX ([2]; inorganic salts + histidine, methionine, tryptophan and tyrosine, without the vitamin mixture): 3.3e-05 s⁻¹; KDOX ([2]; inorganic salts + riboflavin 0.5 μM + histidine, methionine, tryptophan and tyrosine): 0.000367 s⁻¹; KDOX ([2]; inorganic salts + the 20 amino acids of RPMI medium 1640): 6.7e-05 s⁻¹; KDOX ([2]; inorganic salts + vitamin mixture): 0.00012 s⁻¹; KDOX ([2]; inorganic salts + vitamin mixture lacking riboflavin): 6.7e-05 s⁻¹; KDOX ([2]; inorganic salts + vitamin mixture lacking riboflavin + histidine, methionine, tryptophan and tyrosine): 8.3e-05 s⁻¹; KDOX ([2]; inorganic salts + vitamins + histidine, methionine, tryptophan and tyrosine): 0.000417 s⁻¹; KDOX ([2]; inorganic salts + vitamins + the other 16 amino acids): 5e-05 s⁻¹; irradiation period required to prevent the growth inhibitory effects of DOX solutions (P388 cells; 0 to 3 μM DOX and 2 μM riboflavin, without DABCO): > 10 min; drug toxicity abolished (P388 cells; 0 to 3 μM DOX, 2 μM riboflavin, 5 mM DABCO in PBS, […] of UVA irradiation): about 90%; UVA exposure after which the growth inhibitory effect of DOX was destroyed (P388 cells; 0.3 μM DOX with 15 μM riboflavin in PBS): 8 min; effect of UVA irradiation on the growth inhibitory effect of the drug (P388 cells; DOX in PBS, irradiated for up to 30 minutes): did not affect the growth inhibitory effect; drug activity destroyed (P388 cells; DOX in RPMI medium 1640, 1 mm thick solution, 20 joules of UVA energy): about 90%
9 | O=C(O)Cc1ccccc1Nc1c(Cl)cccc1Cl [Diclofenac, reference compound] | 15.8 | 20.1 | –
10 | N[C@@H](CCc1ccccc1)C(=O)O [Homophenylalanine] | 75.3 | – | –
11 | O=C(O)CNc1ccccc1 [N-Phenylglycine] | 15.8 | 43.0 | half-life (FIG. 32) ([1]; compound alone): 43.0; half-life (FIG. 32) in the presence of riboflavin ([1]; compound in combination with riboflavin): 15.8
12 | O=C(O)CCc1nc(-c2ccccc2)c(-c2ccccc2)o1 [Oxaprozine, reference compound] | 8.55 | 17.7 | –
13 | CC1=C(CC(=O)O)c2cc(F)ccc2/C1=C\c1ccc([S+](C)[O-])cc1 (centres unmarked) [Sulindac, Methyl-4-[(5-fluoro2-methyl-indene-3-acetic acid)-1-methylene]phenyl sulfoxide, reference compound] | 100.3 | 100.3 | –
14 | CC(C(=O)O)c1ccc(C(=O)c2cccs2)cc1 (centres unmarked) [Suprofen, reference compound] | <1.11 | 0.456 | –
15 | O=C(O)C=Cc1cccs1 [Thiophene-2-acrylic acid] | 30.1 | 43.0 | –
16 | Cc1ccc(C(=O)c2ccc(CC(=O)O)n2C)cc1 [Tolmetin, 1-Methyl-5-(4-methylbenzoyl)-pyrrole-2-acetic acid, reference compound] | 1.31 | 2.15 | –
17 | N,N-Dimethyl-5-Methoxy Indole | – | – | Half-Life of ADR Destruction, 100 μM Test Compound [1]: 37.6 min; Half-Life of ADR Destruction, 100 μM Test Compound and 0.5 μM Riboflavin [1]: 15.8 min
